Two molecules from publication PMC9981206 (Cancer Research Communications, 2022) can be followed below.

Chains of the proteins cited; added tags and fusions are not shown.
UniProt P09874, whole entry: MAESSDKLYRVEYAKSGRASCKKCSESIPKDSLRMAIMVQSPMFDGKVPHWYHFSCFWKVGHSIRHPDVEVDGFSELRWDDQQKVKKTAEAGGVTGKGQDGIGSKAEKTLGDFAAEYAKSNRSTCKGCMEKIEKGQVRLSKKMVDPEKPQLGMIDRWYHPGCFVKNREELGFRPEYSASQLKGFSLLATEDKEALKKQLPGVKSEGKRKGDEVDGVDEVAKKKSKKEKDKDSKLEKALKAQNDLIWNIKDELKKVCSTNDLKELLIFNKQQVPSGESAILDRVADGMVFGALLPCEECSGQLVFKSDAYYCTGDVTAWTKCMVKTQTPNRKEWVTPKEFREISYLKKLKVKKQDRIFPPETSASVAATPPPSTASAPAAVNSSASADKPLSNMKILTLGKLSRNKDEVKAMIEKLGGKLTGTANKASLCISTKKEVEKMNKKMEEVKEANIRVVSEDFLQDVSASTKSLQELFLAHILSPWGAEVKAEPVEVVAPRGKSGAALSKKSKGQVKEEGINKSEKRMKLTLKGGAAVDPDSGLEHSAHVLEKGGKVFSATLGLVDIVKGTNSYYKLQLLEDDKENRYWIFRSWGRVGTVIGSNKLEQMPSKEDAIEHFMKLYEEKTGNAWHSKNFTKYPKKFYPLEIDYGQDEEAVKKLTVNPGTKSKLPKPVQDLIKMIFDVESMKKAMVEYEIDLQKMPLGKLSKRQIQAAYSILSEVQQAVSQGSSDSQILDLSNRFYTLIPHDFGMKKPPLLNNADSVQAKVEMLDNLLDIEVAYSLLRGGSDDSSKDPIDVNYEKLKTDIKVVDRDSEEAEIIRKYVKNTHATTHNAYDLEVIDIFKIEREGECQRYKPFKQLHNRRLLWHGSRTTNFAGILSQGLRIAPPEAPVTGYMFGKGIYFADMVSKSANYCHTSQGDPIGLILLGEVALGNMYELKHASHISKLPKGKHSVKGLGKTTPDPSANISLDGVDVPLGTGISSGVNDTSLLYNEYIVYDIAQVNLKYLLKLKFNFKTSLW

Structures are written as SMILES.

In experiment [1] the test system is NCI-60 tumor cell line panel. The experiment can be described thus: NCI-60 human cancer cell line proliferation/viability screen. The class given is cell-based. Conditions: 10 nmol/L, 48 hours.
A further experiment concerns the target T1, TNKS2 (Homo sapiens, UniProt Q9H2K2).
T1 sequence (Q9H2K2 1-1166): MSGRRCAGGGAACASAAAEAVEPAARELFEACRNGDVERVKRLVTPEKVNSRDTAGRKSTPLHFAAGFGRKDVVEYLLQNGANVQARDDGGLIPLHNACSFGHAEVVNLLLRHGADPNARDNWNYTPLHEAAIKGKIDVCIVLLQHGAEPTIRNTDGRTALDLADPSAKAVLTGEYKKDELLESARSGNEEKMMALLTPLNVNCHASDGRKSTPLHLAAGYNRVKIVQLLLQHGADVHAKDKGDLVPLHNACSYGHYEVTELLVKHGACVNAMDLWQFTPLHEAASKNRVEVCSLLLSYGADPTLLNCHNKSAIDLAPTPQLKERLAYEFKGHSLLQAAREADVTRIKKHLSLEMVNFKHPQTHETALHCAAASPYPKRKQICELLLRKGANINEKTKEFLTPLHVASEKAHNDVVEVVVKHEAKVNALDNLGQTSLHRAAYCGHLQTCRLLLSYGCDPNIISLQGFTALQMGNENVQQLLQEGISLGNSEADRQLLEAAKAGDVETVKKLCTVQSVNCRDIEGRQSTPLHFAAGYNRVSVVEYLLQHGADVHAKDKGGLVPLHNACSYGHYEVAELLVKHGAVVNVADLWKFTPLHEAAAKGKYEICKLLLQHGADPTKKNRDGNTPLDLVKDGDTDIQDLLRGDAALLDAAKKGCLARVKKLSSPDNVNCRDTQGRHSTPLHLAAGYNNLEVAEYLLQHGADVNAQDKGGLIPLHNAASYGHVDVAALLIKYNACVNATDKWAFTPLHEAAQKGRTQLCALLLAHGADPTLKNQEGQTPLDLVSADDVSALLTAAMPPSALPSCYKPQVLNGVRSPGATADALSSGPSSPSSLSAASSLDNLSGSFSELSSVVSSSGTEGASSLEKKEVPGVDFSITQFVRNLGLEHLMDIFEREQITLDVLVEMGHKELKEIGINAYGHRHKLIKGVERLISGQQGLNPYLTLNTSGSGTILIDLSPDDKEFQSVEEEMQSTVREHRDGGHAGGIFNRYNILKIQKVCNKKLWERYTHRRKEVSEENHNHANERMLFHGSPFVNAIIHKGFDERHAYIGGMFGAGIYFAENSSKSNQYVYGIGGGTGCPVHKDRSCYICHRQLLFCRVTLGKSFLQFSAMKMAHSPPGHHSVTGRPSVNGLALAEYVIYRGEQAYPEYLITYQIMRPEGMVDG
The experiment can be described thus: TNKS2 biochemical assay. Particulars: mean ± SD.

The target in a further experiment is T2, TNKS1 (Homo sapiens, UniProt O95271).
T2 sequence (O95271 1-1327): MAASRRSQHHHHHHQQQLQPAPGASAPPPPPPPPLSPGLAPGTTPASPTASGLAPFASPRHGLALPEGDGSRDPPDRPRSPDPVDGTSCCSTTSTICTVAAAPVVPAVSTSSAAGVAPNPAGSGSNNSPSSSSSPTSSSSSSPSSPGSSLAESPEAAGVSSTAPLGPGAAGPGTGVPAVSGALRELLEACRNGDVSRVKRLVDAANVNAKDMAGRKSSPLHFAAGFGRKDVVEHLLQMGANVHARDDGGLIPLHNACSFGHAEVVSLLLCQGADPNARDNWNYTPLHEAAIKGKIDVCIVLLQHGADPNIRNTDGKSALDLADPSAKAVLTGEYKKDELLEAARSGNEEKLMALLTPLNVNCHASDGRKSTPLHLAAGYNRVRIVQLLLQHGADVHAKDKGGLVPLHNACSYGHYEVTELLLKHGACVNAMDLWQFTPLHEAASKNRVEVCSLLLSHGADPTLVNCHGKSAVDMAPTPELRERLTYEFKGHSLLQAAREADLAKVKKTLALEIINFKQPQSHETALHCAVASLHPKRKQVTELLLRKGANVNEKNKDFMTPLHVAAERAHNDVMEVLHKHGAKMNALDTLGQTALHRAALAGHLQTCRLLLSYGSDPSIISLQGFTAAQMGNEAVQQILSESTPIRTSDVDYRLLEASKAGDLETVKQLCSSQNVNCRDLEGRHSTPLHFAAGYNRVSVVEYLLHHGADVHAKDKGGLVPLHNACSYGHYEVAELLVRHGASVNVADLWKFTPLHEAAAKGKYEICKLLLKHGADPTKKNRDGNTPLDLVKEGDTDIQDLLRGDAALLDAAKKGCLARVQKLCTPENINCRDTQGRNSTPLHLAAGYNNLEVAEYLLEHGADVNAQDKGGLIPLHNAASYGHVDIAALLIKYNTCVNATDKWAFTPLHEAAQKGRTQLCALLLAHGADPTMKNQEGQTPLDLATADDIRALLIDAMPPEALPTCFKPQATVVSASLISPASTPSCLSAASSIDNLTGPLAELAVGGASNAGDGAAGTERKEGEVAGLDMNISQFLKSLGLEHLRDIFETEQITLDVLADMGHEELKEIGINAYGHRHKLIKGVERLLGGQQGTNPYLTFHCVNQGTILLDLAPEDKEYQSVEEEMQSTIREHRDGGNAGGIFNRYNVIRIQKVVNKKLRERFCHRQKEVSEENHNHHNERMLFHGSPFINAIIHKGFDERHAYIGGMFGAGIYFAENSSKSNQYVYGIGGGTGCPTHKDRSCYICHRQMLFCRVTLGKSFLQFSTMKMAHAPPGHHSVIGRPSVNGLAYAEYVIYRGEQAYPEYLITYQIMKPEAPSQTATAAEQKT
The experiment can be described thus: TNKS1 biochemical assay. Conditions: mean ± SD.

The target in another experiment is PARP1 (Homo sapiens, UniProt P09874). Put plainly: PARP1 biochemical assay.

Consider `CCOc1ccc(-c2nnc([C@H]3C[C@H](NC(=O)c4cccc5nccnc45)C3)n2-c2ccccc2F)nc1` [OM-153], for which the “number of the 60 tested cancer cell lines showing >25% relative growth inhibition” value in experiment [1] is 16.
Turning to `Cc1cc(N2C[C@@H](C)N[C@@H](C)C2)ncc1-c1ccc(-c2nc3c(ccn3C)c(=O)[nH]2)cc1` [AZ6102], the figures for the half-maximal inhibitory concentration (IC50) against TNKS2, on TNKS1 and at PARP1 were 2.5 ± 0.3 nM, 12 ± 1.2 nM and 1500 nM, respectively.
